Measured values from US20040048790A1, “Inducing cellular immune responses to p53 using peptide and nucleic acid compositions” (priority 1999, published 2004).

Assays:
[1] = molecular target: B*3501 (Homo sapiens, UniProt P01889, A329T/A93T/A95T/C349S/D201E/D98Y/E176V/E187L/E204Q/E69T/I218V/K202T/L119I/Q94N/R155S/R180L/S121R/S35A/S48A/T118I/V127L/V306I/V36M/Y140S/Y91F); experiment: biochemical
[2] = molecular target: B51; set-up: species or system human; settings: Table XXIV, B7 supermotif peptides; read-out: B*5101 binding affinity
[3] = molecular target: HLA-B*0702 (Homo sapiens, UniProt P01889); experiment: biochemical
[4] = molecular target: HLA-A*0201 (Homo sapiens, UniProt P04439, D140Y/D185E/D98H/E176V/E277Q/G131W/G231S/I119V/I121R/I166T/I218V/L300P/L318F/N151K/N90K/P208A/P217A/Q86G/Q94H/R138H/R169H/T345S); experiment: biochemical
[5] = molecular target: A*0206 (Homo sapiens, UniProt P04439, D140Y/D185E/D98H/E176V/E277Q/F33Y/G131W/G231S/I119V/I121R/I166T/I218V/L300P/L318F/N151K/N90K/P208A/P217A/Q86G/Q94H/R138H/R169H/T345S); experiment: biochemical; settings: A*0206 binding affinity, Table XXII, A2 supermotif analogs

Work on C[C@H](N)C(=O)N1CCC[C@H]1C(=O)N[C@@H](C)C(=O)N1CCC[C@H]1C(=O)N[C@@H](C)C(=O)N1CCC[C@H]1C(=O)N[C@@H](CO)C(=O)N[C@@H](Cc1c[nH]c2ccccc12)C(=O)O [p53.84] yielded an IC50 [1] of 3.27 µM.
CC[C@H](C)[C@H](NC(=O)[C@H](CO)NC(=O)[C@@H]1CCCN1C(=O)[C@H](C)NC(=O)[C@@H]1CCCN1C(=O)[C@H](C)NC(=O)[C@@H]1CCCN1C(=O)[C@H](C)N)C(=O)O [p53.84.18] gave an IC50 [2] of 0.5 µM and an IC50 [3] of 0.275 µM.
CC[C@H](C)[C@H](N)C(=O)N[C@@H](CC(C)C)C(=O)N[C@@H](CC(C)C)C(=O)N[C@@H](CCC(=O)O)C(=O)N[C@@H](CC(=O)O)C(=O)N[C@@H](CO)C(=O)N[C@@H](CO)C(=O)NCC(=O)N[C@@H](CC(N)=O)C(=O)N[C@@H](CC(C)C)C(=O)N[C@H](C(=O)O)C(C)C [p53.255L2V11] showed an IC50 [4] of 0.033 µM.
For CC(C)C[C@H](NC(=O)[C@H](C)N)C(=O)N1CCC[C@H]1C(=O)N1CCC[C@H]1C(=O)N[C@H](C(=O)N[C@@H](C)C(=O)N1CCC[C@H]1C(=O)N[C@H](C(=O)O)C(C)C)C(C)C [p53.69L2V8], the IC50 [5] was 0.285 µM.
